According to patent US20150368338A1 (Janssen / Centocor, published 2015):

Each binder was assayed against T1, IFN-αB2 (human, UniProt P32881 24-189) (assay: ProteOn SPR, cell supernatant;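 note: each binding measurement used just a single antigen concentration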).
T1 construct: Recombinant, HEK293; also called IFN-α8

Row | Kd [nM] | Binder
1 | 0.058 | IFWM3413 (antibody, IgG1, V domains shown, mAb; IgG1/kappa said of the parent and of selected mAbs; also called IFWB3148) VH: EVQLVQSGAEVKKPGESLKISCKGSGYSFTSYWIGWVRQMPGKGLEWMGIIDPSDSDTRYSPSFQGQVTISADKSISTAYLQWSSLKASDTAMYYCARHPGLAWAPDFDYWGQGTLVTVSS VL: DIQMTQSPSSLSASVGDRVTITCRASQSINYLNWYQQKPGKAPKLLIYGASSLQSGVPSRFSGSGSGTDFTLTISSLQPEDFATYYCQQSHDWPITFGQGTKVEIK
2 | 0.039 | IFWM3406 (antibody, IgG1, V domains shown, mAb; IgG1/kappa said of the parent and of selected mAbs; also called IFWB3141) VH: EVQLVQSGAEVKKPGESLKISCKGSGYSFTSYWIGWVRQMPGKGLEWMGIIDPSDSDTRYSPSFQGQVTISADKSISTAYLQWSSLKASDTAMYYCARHPGLAWAPDFDYWGQGTLVTVSS VL: DIQMTQSPSSLSASVGDRVTITCRASQSINNLNWYQQKPGKAPKLLIYWASSLQSGVPSRFSGSGSGTDFTLTISSLQPEDFATYYCQQGYDTPFTFGQGTKVEIK
3 | 0.058 | IFWM3377 (antibody, IgG1, V domains shown, mAb; IgG1/kappa said of the parent and of selected mAbs; also called IFWB3112) VH: EVQLVQSGAEVKKPGESLKISCKGSGYSFTSYWIGWVRQMPGKGLEWMGIIDPSDSDTAYSPSFQGQVTISADKSISTAYLQWSSLKASDTAMYYCARHPGLNWAPDFDYWGQGTLVTVSS VL: DIQMTQSPSSLSASVGDRVTITCRASQSIRNTNLNWYQQKPGKAPKLLIHWASSLQSGVPSRFSGSGSGTDFTLTISSLQPEDFATYYCQQGYDTPFTFGQGTKVEIK
4 | 0.036 | IFWM3399 (antibody, IgG1, V domains shown, mAb; IgG1/kappa said of the parent and of selected mAbs; also called IFWB3134) VH: EVQLVQSGAEVKKPGESLKISCKGSGYSFTSYWIGWVRQMPGKGLEWMGIIDPSDSDTRYSPSFQGQVTISADKSISTAYLQWSSLKASDTAMYYCARHPGLAWAPDFDYWGQGTLVTVSS VL: DIQMTQSPSSLSASVGDRVTITCRASQSIDGALNWYQQKPGKAPKLLIYFASSLQSGVPSRFSGSGSGTDFTLTISSLQPEDFATYYCQQAYDFPLTFGQGTKVEIK
5 | 0.018 | IFWM3409 (antibody, IgG1, V domains shown, mAb; IgG1/kappa said of the parent and of selected mAbs; also called IFWB3144) VH: EVQLVQSGAEVKKPGESLKISCKGSGYSFTSYWIGWVRQMPGKGLEWMGIIDPSDSDTRYSPSFQGQVTISADKSISTAYLQWSSLKASDTAMYYCARHPGLAWAPDFDYWGQGTLVTVSS VL: DIQMTQSPSSLSASVGDRVTITCRASQSIDNSYLNWYQQKPGKAPKLLIYGASSLQSGVPSRFSGSGSGTDFTLTISSLQPEDFATYYCQQGWDWPLTFGQGTKVEIK
6 | 0.141 | IFWM3378 (antibody, IgG1, V domains shown, mAb; IgG1/kappa said of the parent and of selected mAbs; also called IFWB3113) VH: EVQLVQSGAEVKKPGESLKISCKGSGYSFTSYWIGWVRQMPGKGLEWMGIIDPSDSDTAYSPSFQGQVTISADKSISTAYLQWSSLKASDTAMYYCARHPGLNWAPDFDYWGQGTLVTVSS VL: DIQMTQSPSSLSASVGDRVTITCRASQSIANNDLNWYQQKPGKAPKLLIHWASSLQSGVPSRFSGSGSGTDFTLTISSLQPEDFATYYCQQDYDWPLTFGQGTKVEIK
7 | 0.036 | IFWM3417 (antibody, IgG1, V domains shown, mAb; IgG1/kappa said of the parent and of selected mAbs; also called IFWB3152) VH: EVQLVQSGAEVKKPGESLKISCKGSGYSFTSYWIGWVRQMPGKGLEWMGIIDPSDSDTRYSPSFQGQVTISADKSISTAYLQWSSLKASDTAMYYCARHPGLAWAPDFDYWGQGTLVTVSS VL: DIQMTQSPSSLSASVGDRVTITCRASQSIANNDLNWYQQKPGKAPKLLIHWASSLQSGVPSRFSGSGSGTDFTLTISSLQPEDFATYYCQQDYDWPLTFGQGTKVEIK
8 | 0.019 | IFWM3385 (antibody, IgG1, V domains shown, mAb; IgG1/kappa said of the parent and of selected mAbs; also called IFWB3120) VH: EVQLVQSGAEVKKPGESLKISCKGSGYSFTSYWIGWVRQMPGKGLEWMGIIDPSDSDTRYSPSFQGQVTISADKSISTAYLQWSSLKASDTAMYYCARHPGLAWAPDFDYWGQGTLVTVSS VL: DIQMTQSPSSLSASVGDRVTITCRASQSIGDFLNWYQQKPGKAPKLLIYFASSLQSGVPSRFSGSGSGTDFTLTISSLQPEDFATYYCQQALDFPLTFGQGTKVEIK
9 | 0.015 | IFWM3415 (antibody, IgG1, V domains shown, mAb; IgG1/kappa said of the parent and of selected mAbs; also called IFWB3150) VH: EVQLVQSGAEVKKPGESLKISCKGSGYSFTSYWIGWVRQMPGKGLEWMGIIDPSDSDTRYSPSFQGQVTISADKSISTAYLQWSSLKASDTAMYYCARHPGLAWAPDFDYWGQGTLVTVSS VL: DIQMTQSPSSLSASVGDRVTITCRASQSISNSNLNWYQQKPGKAPKLLIHWASSLQSGVPSRFSGSGSGTDFTLTISSLQPEDFATYYCQQWYDHPLTFGQGTKVEIK

These binders were tested against T1, IFN-αB2 (assay: cell-based or functional assay).

Row | IC50, ISRE assay [nM] | Binder
10 | 0.327 | IFWM3332 (antibody, IgG1, V domains shown) VH: EVQLVQSGAEVKKPGESLKISCKGSGYSFTSYWIGWVRQMPGKGLEWMGIIDPSDSDTRYSPSFQGQVTISADKSISTAYLQWSSLKASDTAMYYCARHPGLNWAPDFDYWGQGTLVTVSS VL: DIQMTQSPSSLSASVGDRVTITCRASQSIANTNLNWYQQKPGKAPKLLIHWASSLQSGVPSRFSGSGSGTDFTLTISSLQPEDFATYYCQQWYDNPLTFGQGTKVEIK
11 | 0.121 | IFWM3322 (antibody, IgG1, V domains shown) VH: EVQLVQSGAEVKKPGESLKISCKGSGYSFTSYWIGWVRQMPGKGLEWMGIIDPSDSDTRYSPSFQGQVTISADKSISTAYLQWSSLKASDTAMYYCARHPGLNWAPDFDYWGQGTLVTVSS VL: DIQMTQSPSSLSASVGDRVTITCRASQSIADFLNWYQQKPGKAPKLLIYFASSLQSGVPSRFSGSGSGTDFTLTISSLQPEDFATYYCQQSHSFPLTFGQGTKVEIK
12 | 0.039 | IFWM3304 (antibody, IgG1, V domains shown) VH: EVQLVQSGAEVKKPGESLKISCKGSGYSFTSYWIGWVRQMPGKGLEWMGIIDPSDSDTRYSPSFQGQVTISADKSISTAYLQWSSLKASDTAMYYCARHPGLNWAPDFDYWGQGTLVTVSS VL: DIQMTQSPSSLSASVGDRVTITCRASQSIGSALNWYQQKPGKAPKLLIYFASSLQSGVPSRFSGSGSGTDFTLTISSLQPEDFATYYCQQSYDFPLTFGQGTKVEIK
13 | 0.018 | IFWM3320 (antibody, IgG1, V domains shown) VH: EVQLVQSGAEVKKPGESLKISCKGSGYSFTSYWIGWVRQMPGKGLEWMGIIDPSDSDTRYSPSFQGQVTISADKSISTAYLQWSSLKASDTAMYYCARHPGLNWAPDFDYWGQGTLVTVSS VL: DIQMTQSPSSLSASVGDRVTITCRASQSINGVLNWYQQKPGKAPKLLIYFASSLQSGVPSRFSGSGSGTDFTLTISSLQPEDFATYYCQQSHDFPLTFGQGTKVEIK
14 | 0.043 | IFWM3310 (antibody, IgG1, V domains shown) VH: EVQLVQSGAEVKKPGESLKISCKGSGYSFTSYWIGWVRQMPGKGLEWMGIIDPSDSDTRYSPSFQGQVTISADKSISTAYLQWSSLKASDTAMYYCARHPGLNWAPDFDYWGQGTLVTVSS VL: DIQMTQSPSSLSASVGDRVTITCRASQSIGKSLNWYQQKPGKAPKLLIYFASSLQSGVPSRFSGSGSGTDFTLTISSLQPEDFATYYCQQSYDFPLTFGQGTKVEIK
15 | 0.08 | IFWM3331 (antibody, IgG1, V domains shown) VH: EVQLVQSGAEVKKPGESLKISCKGSGYSFTSYWIGWVRQMPGKGLEWMGIIDPSDSDTRYSPSFQGQVTISADKSISTAYLQWSSLKASDTAMYYCARHPGLNWAPDFDYWGQGTLVTVSS VL: DIQMTQSPSSLSASVGDRVTITCRASQSIDNSYLNWYQQKPGKAPKLLIYGASSLQSGVPSRFSGSGSGTDFTLTISSLQPEDFATYYCQQGWDWPLTFGQGTKVEIK
16 | 0.087 | IFWM3321 (antibody, IgG1, V domains shown) VH: EVQLVQSGAEVKKPGESLKISCKGSGYSFTSYWIGWVRQMPGKGLEWMGIIDPSDSDTRYSPSFQGQVTISADKSISTAYLQWSSLKASDTAMYYCARHPGLNWAPDFDYWGQGTLVTVSS VL: DIQMTQSPSSLSASVGDRVTITCRASQSIDGALNWYQQKPGKAPKLLIYFASSLQSGVPSRFSGSGSGTDFTLTISSLQPEDFATYYCQQAYDFPLTFGQGTKVEIK
17 | 0.016 | IFWM3421 (antibody, IgG1, V domains shown) VH: EVQLVQSGAEVKKPGESLKISCKGSGYSFTSYWIGWVRQMPGKGLEWMGIIDPSDSDTRYSPSFQGQVTISADKSISTAYLQWSSLKASDTAMYYCARHPGLNWAPDFDYWGQGTLVTVSS VL: DIQMTQSPSSLSASVGDRVTITCRASQSIDGFLNWYQQKPGKAPKLLIYFASSLQSGVPSRFSGSGSGTDFTLTISSLQPEDFATYYCQQSYDLPITFGQGTKVEIK
18 | 0.033 | IFWM3314 (antibody, IgG1, V domains shown) VH: EVQLVQSGAEVKKPGESLKISCKGSGYSFTSYWIGWVRQMPGKGLEWMGIIDPSDSDTRYSPSFQGQVTISADKSISTAYLQWSSLKASDTAMYYCARHPGLNWAPDFDYWGQGTLVTVSS VL: DIQMTQSPSSLSASVGDRVTITCRASQSIDRALNWYQQKPGKAPKLLIYFASSLQSGVPSRFSGSGSGTDFTLTISSLQPEDFATYYCQQSFDFPLTFGQGTKVEIK
19 | 0.247 | IFWM3307 (antibody, IgG1, V domains shown) VH: EVQLVQSGAEVKKPGESLKISCKGSGYSFTSYWIGWVRQMPGKGLEWMGIIDPSDSDTRYSPSFQGQVTISADKSISTAYLQWSSLKASDTAMYYCARHPGLNWAPDFDYWGQGTLVTVSS VL: DIQMTQSPSSLSASVGDRVTITCRASQSIGDFLNWYQQKPGKAPKLLIYFASSLQSGVPSRFSGSGSGTDFTLTISSLQPEDFATYYCQQALDFPLTFGQGTKVEIK
20 | 0.52 | IFWM3328 (antibody, IgG1, V domains shown) VH: EVQLVQSGAEVKKPGESLKISCKGSGYSFTSYWIGWVRQMPGKGLEWMGIIDPSDSDTRYSPSFQGQVTISADKSISTAYLQWSSLKASDTAMYYCARHPGLNWAPDFDYWGQGTLVTVSS VL: DIQMTQSPSSLSASVGDRVTITCRASQSINNLNWYQQKPGKAPKLLIYWASSLQSGVPSRFSGSGSGTDFTLTISSLQPEDFATYYCQQGYDTPFTFGQGTKVEIK
21 | 0.011 | IFWM3423 (antibody, IgG1, V domains shown) VH: EVQLVQSGAEVKKPGESLKISCKGSGYSFTSYWIGWVRQMPGKGLEWMGIIDPSDSDTRYSPSFQGQVTISADKSISTAYLQWSSLKASDTAMYYCARHPGLAWAPDFDYWGQGTLVTVSS VL: DIQMTQSPSSLSASVGDRVTITCRASQSIDGFLNWYQQKPGKAPKLLIYFASSLQSGVPSRFSGSGSGTDFTLTISSLQPEDFATYYCQQSYDLPITFGQGTKVEIK
22 | 0.23 | IFWM3308 (antibody, IgG1, V domains shown) VH: EVQLVQSGAEVKKPGESLKISCKGSGYSFTSYWIGWVRQMPGKGLEWMGIIDPSDSDTRYSPSFQGQVTISADKSISTAYLQWSSLKASDTAMYYCARHPGLNWAPDFDYWGQGTLVTVSS VL: DIQMTQSPSSLSASVGDRVTITCRASQSIAEFLNWYQQKPGKAPKLLIYFASSLQSGVPSRFSGSGSGTDFTLTISSLQPEDFATYYCQQSIDFPLTFGQGTKVEIK
23 | 0.062 | IFWM3399 (antibody, IgG1, V domains shown, mAb; IgG1/kappa said of the parent and of selected mAbs; also called IFWB3134) VH: EVQLVQSGAEVKKPGESLKISCKGSGYSFTSYWIGWVRQMPGKGLEWMGIIDPSDSDTRYSPSFQGQVTISADKSISTAYLQWSSLKASDTAMYYCARHPGLAWAPDFDYWGQGTLVTVSS VL: DIQMTQSPSSLSASVGDRVTITCRASQSIDGALNWYQQKPGKAPKLLIYFASSLQSGVPSRFSGSGSGTDFTLTISSLQPEDFATYYCQQAYDFPLTFGQGTKVEIK
24 | 0.158 | IFWM3385 (antibody, IgG1, V domains shown, mAb; IgG1/kappa said of the parent and of selected mAbs; also called IFWB3120) VH: EVQLVQSGAEVKKPGESLKISCKGSGYSFTSYWIGWVRQMPGKGLEWMGIIDPSDSDTRYSPSFQGQVTISADKSISTAYLQWSSLKASDTAMYYCARHPGLAWAPDFDYWGQGTLVTVSS VL: DIQMTQSPSSLSASVGDRVTITCRASQSIGDFLNWYQQKPGKAPKLLIYFASSLQSGVPSRFSGSGSGTDFTLTISSLQPEDFATYYCQQALDFPLTFGQGTKVEIK
